Experimental data from ChEMBL document CHEMBL4359921, “Discovery of potent 4-aminoquinoline hydrazone inhibitors of NRH:quinoneoxidoreductase-2 (NQO2)” (Eur J Med Chem, 2019).

target: T1, Ribosyldihydronicotinamide dehydrogenase [quinone] (Homo sapiens, UniProt P16083); assay: Inhibition of recombinant human NQO2 expressed in Escherichia coli BL21 (DE3) using DCPIP as substrate
T1 sequence (P16083 whole entry): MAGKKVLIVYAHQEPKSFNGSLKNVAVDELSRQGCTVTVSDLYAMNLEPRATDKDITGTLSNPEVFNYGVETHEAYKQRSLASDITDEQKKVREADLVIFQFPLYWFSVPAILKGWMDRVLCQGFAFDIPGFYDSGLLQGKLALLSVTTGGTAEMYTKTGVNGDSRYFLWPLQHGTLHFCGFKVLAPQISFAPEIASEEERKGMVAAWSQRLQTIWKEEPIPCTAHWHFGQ

Row | IC50 [nM] | Compound
1 | 70 | NCCNC(=O)c1cccc2nc(-c3ccc(-c4ccccc4)cc3)ccc12
2 | 40 | NCCNC(=O)c1cc([N+](=O)[O-])cc2ccc(-c3ccccc3)nc12
3 | 550 | CCN(C)CCCC(C)Nc1cc(-c2ccccc2)nc2cc(OC)ccc12 (stereo not drawn)
